What was measured:
Type in all cases: biochemical
MMP9 = MMP9 (Homo sapiens (Human), UniProt P14780); assay: Selectivity test MMP9
TACE enzyme = TACE enzyme (Homo sapiens, UniProt P78536); assay: Enzymatic test of TACE inhibition
Description: The substrate is used at 40 μM. […] Test of the Products

The chains behind the UniProt entries cited, without tags or fusion partners. Residues count along the entry.
UniProt P14780, 94-707, species assumed: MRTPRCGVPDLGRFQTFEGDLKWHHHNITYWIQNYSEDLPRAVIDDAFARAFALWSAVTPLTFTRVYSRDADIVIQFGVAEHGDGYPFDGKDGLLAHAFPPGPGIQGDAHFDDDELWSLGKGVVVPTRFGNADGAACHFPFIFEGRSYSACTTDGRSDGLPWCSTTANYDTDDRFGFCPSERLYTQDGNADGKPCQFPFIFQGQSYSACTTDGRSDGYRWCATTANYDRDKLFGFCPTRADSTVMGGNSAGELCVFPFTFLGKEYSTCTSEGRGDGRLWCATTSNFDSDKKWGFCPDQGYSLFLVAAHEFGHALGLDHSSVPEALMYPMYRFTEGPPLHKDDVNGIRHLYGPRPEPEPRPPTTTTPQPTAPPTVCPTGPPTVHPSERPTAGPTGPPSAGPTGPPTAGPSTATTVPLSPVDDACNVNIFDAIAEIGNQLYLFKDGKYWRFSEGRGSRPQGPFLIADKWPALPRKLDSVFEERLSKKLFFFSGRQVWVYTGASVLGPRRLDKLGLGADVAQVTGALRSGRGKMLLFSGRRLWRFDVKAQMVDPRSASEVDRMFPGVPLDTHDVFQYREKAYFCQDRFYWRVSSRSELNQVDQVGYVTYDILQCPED
UniProt P78536, 215-824 limits assumed: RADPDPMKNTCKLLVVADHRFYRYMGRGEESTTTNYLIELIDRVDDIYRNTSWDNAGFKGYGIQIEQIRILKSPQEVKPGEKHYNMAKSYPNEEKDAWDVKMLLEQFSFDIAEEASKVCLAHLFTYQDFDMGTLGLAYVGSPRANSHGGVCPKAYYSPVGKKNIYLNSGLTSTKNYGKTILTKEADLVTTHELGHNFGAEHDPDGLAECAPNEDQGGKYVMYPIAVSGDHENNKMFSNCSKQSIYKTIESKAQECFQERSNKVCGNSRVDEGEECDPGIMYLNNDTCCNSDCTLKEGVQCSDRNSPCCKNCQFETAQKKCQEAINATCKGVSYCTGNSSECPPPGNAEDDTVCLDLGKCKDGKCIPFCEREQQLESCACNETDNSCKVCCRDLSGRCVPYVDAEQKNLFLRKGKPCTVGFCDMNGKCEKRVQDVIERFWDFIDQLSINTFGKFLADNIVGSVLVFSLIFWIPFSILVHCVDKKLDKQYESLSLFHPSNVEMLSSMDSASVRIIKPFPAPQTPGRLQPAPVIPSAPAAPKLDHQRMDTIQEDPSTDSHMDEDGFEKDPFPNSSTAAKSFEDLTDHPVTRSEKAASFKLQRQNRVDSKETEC
UniProt P08254, 100-477, species assumed: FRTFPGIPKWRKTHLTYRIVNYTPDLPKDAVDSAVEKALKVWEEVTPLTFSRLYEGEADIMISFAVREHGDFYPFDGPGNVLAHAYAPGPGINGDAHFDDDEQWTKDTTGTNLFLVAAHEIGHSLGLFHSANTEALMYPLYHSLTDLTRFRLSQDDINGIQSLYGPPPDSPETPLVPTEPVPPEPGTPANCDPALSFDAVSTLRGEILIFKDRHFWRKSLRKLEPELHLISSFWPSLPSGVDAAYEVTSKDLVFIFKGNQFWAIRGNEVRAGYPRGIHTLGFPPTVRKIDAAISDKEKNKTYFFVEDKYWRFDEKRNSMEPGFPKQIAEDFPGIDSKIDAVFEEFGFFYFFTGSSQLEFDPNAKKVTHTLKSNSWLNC

MMP3 = MMP3 (Homo sapiens (Human), UniProt P08254); assay: Selectivity test MMP3

IC50 (MMP9)	IC50 (TACE enzyme; fluorescent substrate 40 μM)	IC50 (TACE enzyme; selectivity table)	IC50 (MMP3)	SMILES
> 10000 nM				Cc1cc(COc2ccc(C(=O)NC[C@@H](C(=O)NO)N3CCCCC3)cc2)c2ccccc2n1 [Example 2, N—((S)-2-hydroxycarbamoyl-2-piperidin-1-yl-ethyl)-4-(2-methylquinolin-4-ylmethoxy)benzamide]
	61 nM	61 nM	> 10000 nM	O=C(NC[C@@H](C(=O)NO)N1CCCCC1)c1ccc(OCc2ccnc(-c3ccccc3)c2)cc1 [Example 4, N—((S)-2-hydroxycarbamoyl-2-piperidin-1-yl-ethyl)-4-(2-phenylpyridin-4-ylmethoxy)benzamide]
> 10000 nM				O=C(NC[C@@H](C(=O)NO)N1CCCCC1)c1ccc(OCc2ccncc2)cc1 [Example 5, N—((S)-2-hydroxycarbamoyl-2-piperidin-1-yl-ethyl)-4-(pyridin-4-ylmethoxy)benzamide]
	105 nM			O=C(NC[C@@H](C(=O)NO)N1CCCCC1)c1ccc(OCc2ccnc(Br)c2)cc1 [Example 8, 4-(2-bromopyridin-4-ylmethoxy)-N—((S)-2-hydroxycarbamoyl-2-piperidin-1-ylethyl)benzamide]

Reference: patent US9266848B2, “4-alkoxy-N-(2-hydroxycarbamoyl-2-piperidinyl-ethyl)-benzamide compounds as selective TACE-inhibitors for the treatment of inflammatory diseases” (GALDERMA RESEARCH & DEVELOPMENT, priority 2009, dated 2016)
